{"source": "patent US10925852B2", "about": "“Talc-bound compositions and uses thereof” (THE TRUSTEES OF COLUMBIA UNIVERSITY IN THE CITY OF NEW YORK, priority 2015, dated 2021)", "system": "NCI-28H cells", "assay": "Cytotoxicity assay (MTS) of NCI-28H cells: carboplatin, mitomycin, gemcitabine, talc, talc bound to these drugs (Example 22)", "conditions": "single-agents"}
{"compound": "CO[C@@]12[C@H](COC(N)=O)C3=C(C(=O)C(C)=C(N)C3=O)N1C[C@@H]1N[C@@H]12", "note": "[mitomycin, Mitomycin]", "values": [{"measurement": "cytotoxic effect on NCI-28H cells (in words)", "result": "clear cytotoxic effect"}]}
